Test results as given in article PMC12186753 (ACS pharmacology & translational science, 2025).

The chains behind the UniProt entries cited, without tags or fusion partners. Residues count along the entry.
UniProt P00747, 97-580 limits assumed: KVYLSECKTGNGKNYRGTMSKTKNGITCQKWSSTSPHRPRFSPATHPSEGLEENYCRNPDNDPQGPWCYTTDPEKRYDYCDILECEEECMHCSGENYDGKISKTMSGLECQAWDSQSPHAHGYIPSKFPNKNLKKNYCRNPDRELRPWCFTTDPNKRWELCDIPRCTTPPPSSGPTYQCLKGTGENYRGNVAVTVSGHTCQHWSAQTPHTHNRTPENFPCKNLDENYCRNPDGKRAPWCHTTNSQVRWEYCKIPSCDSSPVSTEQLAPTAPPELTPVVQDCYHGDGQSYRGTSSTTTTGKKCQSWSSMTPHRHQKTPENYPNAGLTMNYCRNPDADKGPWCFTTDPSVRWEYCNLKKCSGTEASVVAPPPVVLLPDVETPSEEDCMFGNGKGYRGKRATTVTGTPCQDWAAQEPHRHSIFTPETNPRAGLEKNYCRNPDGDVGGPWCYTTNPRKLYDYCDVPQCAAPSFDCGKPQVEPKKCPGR
UniProt P00747, 581-810 limits assumed: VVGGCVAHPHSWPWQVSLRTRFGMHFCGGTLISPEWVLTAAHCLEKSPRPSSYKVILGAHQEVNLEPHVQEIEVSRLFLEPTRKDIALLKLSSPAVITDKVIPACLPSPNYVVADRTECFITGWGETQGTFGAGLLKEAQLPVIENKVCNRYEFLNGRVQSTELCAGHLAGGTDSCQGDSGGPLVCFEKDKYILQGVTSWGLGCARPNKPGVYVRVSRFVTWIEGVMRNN

Target: plasmin (Homo sapiens, UniProt P00747)
Test: Plasmin inhibition assay with chromogenic substrate S-2251 (Dixon plot, Cornish-Bowden plot)
Format: biochemical

- Mode of inhibition (Cornish-Bowden S/Vo vs I plot): weak competitive inhibitor
- rp/n: relative potency/number of TXA units: 1.7
- rp: relative potency = Ki^TXA/Ki^multi: 3.3
SMILES: NC[C@H]1CC[C@H](C(=O)NCCCC[C@H](NC(=O)[C@H]2CC[C@H](CN)CC2)C(N)=O)CC1
